{"source": "paper PMC9769502", "about": "(Microbiology Spectrum, 2022)", "key": {"[1]": {"system": "Leishmania donovani axenic amastigotes", "conditions": "48 h", "description": "We utilized a previously developed high-throughput screening assay using transgenic axenic amastigotes expressing a red fluorescent protein, mCherry. Changes in mCherry fluorescence were normalized to 50 μM miltefosine in order to quantify parasite inhibition ([52]). In total, 5 scaffold 25-mer peptides and 475 synthetic 25-mer peptide variants were screened (Fig. 1). […] The assay was repeated, and the average percent parasite killing was determined.\nAxenic amastigotes were differentiated as described previously ([69]).\nAxenic amastigotes were differentiated as described previously ([69]); briefly, transgenic L. donovani promastigotes expressing mCherry were differentiated by pH and temperature shifts. Amastigotes were seeded into 96-well plates at 5 × 10^6 cells/mL and incubated for 48 h in the presence of decreasing drug concentrations, starting at 20 μM, along with the appropriate solvent controls. Fluorescence was monitored (587-nm excitation/610-nm emission) over 48 h using a FlexStation 3 benchtop multimode reader (Molecular Devices). […] Thus, changes in mCherry fluorescence were normalized to the 50 μM miltefosine control in order to quantify parasite inhibition. Each assay was performed in triplicate. The IC50 values were calculated by nonlinear regression analysis using GraphPad Prism 9.0 for Windows."}, "THP-1 macrophages": {"system": "THP-1 macrophages", "assay": "Cytotoxicity against THP-1 macrophages (CellTiter-Blue)", "format": "cell-based, human", "description": "THP-1 (human acute monocytic leukemia-derived) host macrophages were cultured in RPMI 1640 supplemented with 10% FCS and a penicillin-streptomycin antibiotic solution (10,000 U/mL penicillin, 10,000 μg/mL streptomycin) at 37°C with 5% CO2. THP-1 cells were incubated with 0.25 μM phorbol 12-myristate […] (PMA) for 48 h to differentiate into mature macrophages. Differentiated macrophages were seeded into 96-well plates at 5 × 10^6 cells/mL and incubated for 48 h in the presence of 20 μM antimicrobial peptides along with the appropriate solvent controls. Cell viability assays were conducted using CellTiter-Blue (Promega), based on resazurin reduction. After the 48-h incubation period, CellTiter-Blue reagent was added to cells for 4 h at 37°C, and fluorescence was measured (555-nm excitation/580-nm emission) using a FlexStation 3 benchtop multimode reader (Molecular Devices). Each assay was performed in triplicate. The CC50 values were calculated by nonlinear regression analysis using GraphPad Prism 9.0 for Windows."}, "[2]": {"conditions": "PMA-differentiated THP-1 macrophages, 48 h, CellTiter-Blue (resazurin) fluorescence, highest concentration screened 20 μM, mean of three replicates"}, "[3]": {"conditions": "read-out: Axenic amastigotes Mean IC50 ± SD, L. donovani mCherry axenic amastigotes, fluorescence normalized to 50 μM miltefosine, highest concentration 20 μM, mean of three replicates"}}, "note": "Read-outs that look alike come from different tables or passages of the source.", "data": [{"smiles": "CC[C@H](C)[C@H](NC(=O)[C@H](CO)NC(=O)[C@H](CCC(=O)O)NC(=O)[C@H](CCCNC(=N)N)NC(=O)CNC(=O)[C@@H](N)Cc1c[nH]c2ccccc12)C(=O)N[C@@H](CCCCN)C(=O)N[C@@H](C)C(=O)N[C@@H](Cc1ccc(O)cc1)C(=O)N[C@@H](CC(C)C)C(=O)N[C@@H](CCCCN)C(=O)N[C@@H](CCCCN)C(=O)N[C@@H](CCC(=O)O)C(=O)N[C@H](C(=O)N[C@@H](CCCCN)C(=O)N[C@@H](CCCCN)C(=O)NCC(=O)N[C@@H](CCCCN)C(=O)N[C@@H](CCCCN)C(=O)N[C@@H](CCCNC(=N)N)C(=O)N[C@@H](C)C(=O)N[C@H](C(=O)N[C@H](C(=O)N[C@@H](C)C(=O)N[C@@H](Cc1c[nH]c2ccccc12)C(=O)O)[C@@H](C)CC)C(C)C)[C@@H](C)CC", "note": "[Syn-enterocin 15]", "values": [{"measurement": "IC50", "setting": "[1]", "value": "360 ± 30", "unit": "nM"}, {"measurement": "THP-1 macrophage CC50", "setting": "THP-1 macrophages; [2]", "value": "> 20000", "unit": "nM"}]}, {"smiles": "CC[C@H](C)[C@H](NC(=O)[C@H](CO)NC(=O)[C@H](CCC(=O)O)NC(=O)[C@H](CCCNC(=N)N)NC(=O)CNC(=O)[C@H](C)N)C(=O)N[C@@H](CCCCN)C(=O)N[C@@H](C)C(=O)N[C@@H](Cc1ccc(O)cc1)C(=O)N[C@@H](CC(C)C)C(=O)N[C@@H](CCCCN)C(=O)N[C@@H](CCCCN)C(=O)N[C@@H](CCC(=O)O)C(=O)N[C@H](C(=O)N[C@@H](CCCCN)C(=O)N[C@@H](CCCCN)C(=O)N[C@@H](CCCCN)C(=O)NCC(=O)N[C@@H](CCCCN)C(=O)N[C@@H](CCCNC(=N)N)C(=O)N[C@@H](C)C(=O)N[C@H](C(=O)N[C@H](C(=O)N[C@@H](C)C(=O)N[C@@H](Cc1c[nH]c2ccccc12)C(=O)O)[C@@H](C)CC)C(C)C)[C@@H](C)CC", "note": "[Syn-enterocin-1]", "values": [{"measurement": "IC50", "setting": "[1]; [3]", "value": 19300, "unit": "nM"}, {"measurement": "THP-1 macrophage CC50", "setting": "THP-1 macrophages; [2]", "value": "below 20 μM"}]}, {"smiles": "CC[C@H](C)[C@H](NC(=O)[C@H](CCC(=O)O)NC(=O)[C@H](CCCCN)NC(=O)[C@H](CCCCN)NC(=O)[C@H](CC(C)C)NC(=O)[C@H](Cc1ccc(O)cc1)NC(=O)[C@H](CCCCN)NC(=O)[C@H](Cc1c[nH]c2ccccc12)NC(=O)[C@@H](NC(=O)[C@H](CO)NC(=O)[C@H](CCC(=O)O)NC(=O)[C@H](CCCNC(=N)N)NC(=O)CNC(=O)[C@H](C)N)[C@@H](C)CC)C(=O)N[C@@H](CCCCN)C(=O)N[C@@H](CCCCN)C(=O)N[C@@H](CCCCN)C(=O)NCC(=O)N[C@@H](CCCCN)C(=O)N[C@@H](CCCNC(=N)N)C(=O)N[C@@H](C)C(=O)N[C@H](C(=O)N[C@H](C(=O)N[C@@H](C)C(=O)N[C@@H](Cc1c[nH]c2ccccc12)C(=O)O)[C@@H](C)CC)C(C)C", "note": "[Syn-enterocin-19]", "values": [{"measurement": "IC50", "setting": "[1]; [3]", "value": 730, "unit": "nM"}, {"measurement": "THP-1 macrophage CC50", "setting": "THP-1 macrophages; [2]", "value": "below 20 μM"}]}, {"smiles": "CC[C@H](C)[C@H](NC(=O)[C@H](CO)NC(=O)[C@H](CCC(=O)O)NC(=O)[C@H](CCCNC(=N)N)NC(=O)CNC(=O)[C@H](C)N)C(=O)N[C@@H](CCCCN)C(=O)N[C@@H](C)C(=O)N[C@@H](Cc1ccc(O)cc1)C(=O)N[C@@H](CC(C)C)C(=O)N[C@@H](CCCCN)C(=O)N[C@@H](CCCCN)C(=O)N[C@@H](CCC(=O)O)C(=O)N[C@H](C(=O)N[C@@H](CCCCN)C(=O)N[C@@H](CCCCN)C(=O)N[C@@H](Cc1c[nH]c2ccccc12)C(=O)N[C@@H](CCCCN)C(=O)N[C@@H](CCCCN)C(=O)N[C@@H](CCCNC(=N)N)C(=O)N[C@@H](C)C(=O)N[C@H](C(=O)N[C@H](C(=O)N[C@@H](C)C(=O)N[C@@H](Cc1c[nH]c2ccccc12)C(=O)O)[C@@H](C)CC)C(C)C)[C@@H](C)CC", "note": "[Syn-enterocin 47]", "values": [{"measurement": "IC50", "setting": "[1]", "value": "280 ± 70", "unit": "nM"}, {"measurement": "THP-1 macrophage CC50", "setting": "THP-1 macrophages; [2]", "value": "> 20000", "unit": "nM"}]}, {"smiles": "CC[C@H](C)[C@H](NC(=O)[C@H](CCCNC(=N)N)NC(=O)[C@H](C)NC(=O)[C@@H](NC(=O)[C@H](CCCCN)NC(=O)CNC(=O)[C@H](CCCCN)NC(=O)[C@H](CCCCN)NC(=O)[C@H](CCCCN)NC(=O)[C@@H](NC(=O)[C@H](CCC(=O)O)NC(=O)[C@H](CCCCN)NC(=O)[C@H](CCCCN)NC(=O)[C@H](CC(C)C)NC(=O)[C@H](Cc1ccc(O)cc1)NC(=O)[C@H](CCCCN)NC(=O)[C@H](CCCCN)NC(=O)[C@@H](NC(=O)[C@H](CO)NC(=O)[C@H](CCC(=O)O)NC(=O)[C@H](CCCNC(=N)N)NC(=O)CNC(=O)[C@H](C)N)[C@@H](C)CC)[C@@H](C)CC)C(C)C)C(=O)N[C@@H](C)C(=O)N[C@@H](Cc1c[nH]c2ccccc12)C(=O)O", "note": "[Syn-enterocin 69]", "values": [{"measurement": "IC50", "setting": "[1]", "value": "1030 ± 130", "unit": "nM"}, {"measurement": "THP-1 macrophage CC50", "setting": "THP-1 macrophages", "value": "> 20000", "unit": "nM"}, {"measurement": "THP-1 macrophage CC50", "setting": "THP-1 macrophages; 48 h", "value": ">20000", "unit": "nM"}]}, {"smiles": "CC[C@H](C)[C@H](NC(=O)[C@H](Cc1c[nH]c2ccccc12)NC(=O)[C@H](C)NC(=O)[C@H](CCCNC(=N)N)NC(=O)[C@H](CCCCN)NC(=O)CNC(=O)[C@H](CCCCN)NC(=O)[C@H](CCCCN)NC(=O)[C@H](CCCCN)NC(=O)[C@@H](NC(=O)[C@H](Cc1ccc(O)cc1)NC(=O)[C@H](CCCCN)NC(=O)[C@H](CCCCN)NC(=O)[C@H](CC(C)C)NC(=O)[C@H](CCC(=O)O)NC(=O)[C@H](C)NC(=O)[C@H](CCCCN)NC(=O)[C@@H](NC(=O)[C@H](CO)NC(=O)[C@H](CCC(=O)O)NC(=O)[C@H](CCCNC(=N)N)NC(=O)CNC(=O)[C@H](C)N)[C@@H](C)CC)[C@@H](C)CC)C(=O)N[C@@H](C)C(=O)N[C@@H](Cc1c[nH]c2ccccc12)C(=O)O", "note": "[Syn-enterocin-60]", "values": [{"measurement": "IC50", "setting": "[1]; [3]", "value": 290, "unit": "nM"}, {"measurement": "THP-1 macrophage CC50", "setting": "THP-1 macrophages; [2]", "value": "< 20000", "unit": "nM"}]}, {"smiles": "CC[C@H](C)[C@H](NC(=O)[C@H](CO)NC(=O)[C@H](CCC(=O)O)NC(=O)[C@H](CCCNC(=N)N)NC(=O)[C@H](Cc1c[nH]c2ccccc12)NC(=O)[C@H](C)N)C(=O)N[C@@H](CCCCN)C(=O)N[C@@H](C)C(=O)N[C@@H](Cc1ccc(O)cc1)C(=O)N[C@@H](CC(C)C)C(=O)N[C@@H](CCCCN)C(=O)N[C@@H](CCCCN)C(=O)N[C@@H](CCC(=O)O)C(=O)N[C@H](C(=O)N[C@@H](CCCCN)C(=O)N[C@@H](CCCCN)C(=O)NCC(=O)N[C@@H](CCCCN)C(=O)N[C@@H](CCCCN)C(=O)N[C@@H](CCCNC(=N)N)C(=O)N[C@@H](C)C(=O)N[C@H](C(=O)N[C@H](C(=O)N[C@@H](C)C(=O)N[C@@H](Cc1c[nH]c2ccccc12)C(=O)O)[C@@H](C)CC)C(C)C)[C@@H](C)CC", "note": "[Syn-enterocin 39]", "values": [{"measurement": "IC50", "setting": "[1]", "value": "270 ± 50", "unit": "nM"}, {"measurement": "THP-1 macrophage CC50", "setting": "THP-1 macrophages", "value": "> 20000", "unit": "nM"}, {"measurement": "THP-1 macrophage CC50", "setting": "THP-1 macrophages; 48 h", "value": ">20000", "unit": "nM"}]}, {"smiles": "CC[C@H](C)[C@H](NC(=O)[C@H](CO)NC(=O)[C@H](CCC(=O)O)NC(=O)[C@H](CCCNC(=N)N)NC(=O)[C@H](Cc1c[nH]c2ccccc12)NC(=O)[C@H](C)N)C(=O)N[C@@H](CCCCN)C(=O)N[C@@H](C)C(=O)N[C@@H](CCC(=O)O)C(=O)N[C@@H](CC(C)C)C(=O)N[C@@H](CCCCN)C(=O)N[C@@H](CCCCN)C(=O)N[C@@H](Cc1ccc(O)cc1)C(=O)N[C@H](C(=O)N[C@@H](CCCCN)C(=O)N[C@@H](CCCCN)C(=O)N[C@@H](CCCCN)C(=O)NCC(=O)N[C@@H](CCCCN)C(=O)N[C@@H](CCCNC(=N)N)C(=O)N[C@@H](C)C(=O)N[C@H](C(=O)N[C@H](C(=O)N[C@@H](C)C(=O)N[C@@H](Cc1c[nH]c2ccccc12)C(=O)O)[C@@H](C)CC)C(C)C)[C@@H](C)CC", "note": "[Syn-enterocin-36]", "values": [{"measurement": "IC50", "setting": "[1]; [3]", "value": 3210, "unit": "nM"}, {"measurement": "THP-1 macrophage CC50", "setting": "THP-1 macrophages", "value": "< 20000", "unit": "nM"}]}]}
